{
  "source": "paper PMC10293653",
  "about": "(International Journal of Biological Macromolecules, 2023)",
  "tested_on": "DPP4",
  "settings": "virus infected cells",
  "data": [
    {"molecule": "N[C@@H](CC(=O)N1CCn2c(nnc2C(F)(F)F)C1)Cc1cc(F)c(F)cc1F", "note": "[Sitagliptin, sitagliptin]", "values": [
      {"measurement": "cellular DPP4 enzymatic activity in infected cells", "result": "significantly reduced"}
    ]}
  ]
}
